Measured values: patent US12150926B2 (SICHUAN JIUZHANG BIOLOGICAL SCIENCE AND TECHNOLOGY CO., LTD., priority 2018, dated 2024)

Key:
[1] = system: transplanted tumor in S180 sarcoma-bearing KM mice; assay: In vivo inhibitory effect of chlorogenic acid on S180 sarcoma transplantation in KM mice (Experimental example 1); design: species or system mouse; key: V = 0.52 × L × W² (long × shortest diameter²), in cm³; conditions: 7 d after inoculation; intraperitoneally, once a day, 2 mg/kg; x ± s, n = 10
Procedure: (§1) KM mice, half male and half female, weighing 17-24 g.
S180 cell lines were mouse sarcoma cells, and suspendedly grew in DH medium, containing 20% calf serum, 1 mmol/L glutamine, 100 U·ml^−1 penicillin, and 100 μg·ml^−1 streptomycin, then cultured in 37° C. 5% CO2, saturated humidity incubator. The medium was changed every 2-3 days for passage.
S180 cells in the logarithmic growth phase were harvested, centrifuged at 1000 rpm for 5 min, washed twice, and the number of viable cells was counted by trypan blue staining. The cells were inoculated into the abdominal cavity of KM mice as soon as possible, and these mice were used as breeding mice. 2) In vivo experiment The ascites was extracted from 7 to 10 days, and the number of cells was adjusted to (about 1×10^6 cells) after dilution. The cell suspension in ascites was inoculated subcutaneously in the axillary of the left forelimb of the mice at 0.2 ml/animal.
(§2) Negative group: intraperitoneally injected, once a day, receiving an equal volume of normal saline. On the 5th day after inoculation, the tumor volume was measured (V=0.52×L (the long diameter of the transplanted tumor)×W^2 (the shortest diameter of the transplanted tumor)), and the mice were weighed every three days. […] The mice were sacrificed by cervical vertebra luxation and weighed, the tumor was removed, and the tumor inhibitory rate was calculated. […]

[2] = system: transplanted tumor in S180 sarcoma-bearing KM mice; assay: In vivo inhibitory effect of chlorogenic acid composition on S180 sarcoma transplantation in KM mice (Experimental example 2); design: species or system mouse; key: tumor volume V=0.52×L×W² (long × shortest diameter²); conditions: time after inoculation printed 94; intraperitoneally, once a day, 2 mg/kg; x ± s, n = 10
Procedure: S180 sarcoma transplantation in KM mice
as §1
S180 cell lines were mouse sarcoma cells, and suspendedly grew in DH medium, containing 20% calf serum, 1 mmol/L glutamine, 100 U·ml^−1 penicillin, and 100 μg·ml^−1 streptomycin, then cultured in 37° C., 5% CO2, saturated humidity incubator. The medium was changed every 2-3 days for passage.
S180 cells in the logarithmic growth phase were harvested, centrifuged at 1000 rpm for 5 min, washed twice, and the number of viable cells was counted by trypan blue staining. The cells were inoculated into the abdominal cavity of KM mice as soon as possible, and these mice were used as breeding mice.
The ascites was extracted from 7 to 10 days, and the number of cells was adjusted to (about 1×10^6 cells) after dilution. The cell suspension in ascites was inoculated subcutaneously in the axillary of the left forelimb of the mice at 0.2 ml/animal. […] Coumaroylquinic acid group: intraperitoneally injected, once a day, at a dose of 30 mg·kg^−1. […]
as §2, with “On” for “Negative group: intraperitoneally injected, once a day, receiving an equal volume of normal saline. On”

COc1cccc2c1C(=O)c1c(O)c3c(c(O)c1C2=O)C[C@@](O)(C(=O)CO)C[C@@H]3O[C@H]1C[C@H](N)[C@H](O)[C@H](C)O1 [ADM, adriamycin, reference compound]
growth volume of transplanted tumor [1]: 0.148 ± 0.066
growth volume of transplanted tumor [2]: 0.231 ± 0.053
